Read-outs that look alike come from different tables or passages of the source.

Chains of the proteins cited; added tags and fusions are not shown. Residues count along the entry.
UniProt P35222, whole entry: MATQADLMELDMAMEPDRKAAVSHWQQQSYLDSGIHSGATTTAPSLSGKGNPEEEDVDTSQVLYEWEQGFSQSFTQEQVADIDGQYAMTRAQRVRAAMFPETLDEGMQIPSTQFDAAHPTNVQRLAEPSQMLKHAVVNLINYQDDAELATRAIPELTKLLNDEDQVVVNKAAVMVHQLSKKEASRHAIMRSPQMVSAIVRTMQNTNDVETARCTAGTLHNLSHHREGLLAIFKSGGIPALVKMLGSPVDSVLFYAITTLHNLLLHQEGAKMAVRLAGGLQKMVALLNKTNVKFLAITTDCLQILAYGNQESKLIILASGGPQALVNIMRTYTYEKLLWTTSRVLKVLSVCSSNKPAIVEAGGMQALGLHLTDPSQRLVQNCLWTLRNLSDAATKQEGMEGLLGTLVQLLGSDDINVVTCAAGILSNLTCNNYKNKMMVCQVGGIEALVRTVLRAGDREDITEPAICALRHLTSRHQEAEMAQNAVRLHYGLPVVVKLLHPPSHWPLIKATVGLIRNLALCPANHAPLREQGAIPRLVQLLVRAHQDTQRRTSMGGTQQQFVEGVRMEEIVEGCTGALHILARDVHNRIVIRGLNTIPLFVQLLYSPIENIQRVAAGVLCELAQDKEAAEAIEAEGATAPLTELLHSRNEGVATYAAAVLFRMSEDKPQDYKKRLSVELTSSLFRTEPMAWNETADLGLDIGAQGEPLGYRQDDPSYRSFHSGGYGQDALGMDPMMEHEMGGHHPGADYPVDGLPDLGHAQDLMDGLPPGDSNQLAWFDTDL
UniProt P35222, 2-781: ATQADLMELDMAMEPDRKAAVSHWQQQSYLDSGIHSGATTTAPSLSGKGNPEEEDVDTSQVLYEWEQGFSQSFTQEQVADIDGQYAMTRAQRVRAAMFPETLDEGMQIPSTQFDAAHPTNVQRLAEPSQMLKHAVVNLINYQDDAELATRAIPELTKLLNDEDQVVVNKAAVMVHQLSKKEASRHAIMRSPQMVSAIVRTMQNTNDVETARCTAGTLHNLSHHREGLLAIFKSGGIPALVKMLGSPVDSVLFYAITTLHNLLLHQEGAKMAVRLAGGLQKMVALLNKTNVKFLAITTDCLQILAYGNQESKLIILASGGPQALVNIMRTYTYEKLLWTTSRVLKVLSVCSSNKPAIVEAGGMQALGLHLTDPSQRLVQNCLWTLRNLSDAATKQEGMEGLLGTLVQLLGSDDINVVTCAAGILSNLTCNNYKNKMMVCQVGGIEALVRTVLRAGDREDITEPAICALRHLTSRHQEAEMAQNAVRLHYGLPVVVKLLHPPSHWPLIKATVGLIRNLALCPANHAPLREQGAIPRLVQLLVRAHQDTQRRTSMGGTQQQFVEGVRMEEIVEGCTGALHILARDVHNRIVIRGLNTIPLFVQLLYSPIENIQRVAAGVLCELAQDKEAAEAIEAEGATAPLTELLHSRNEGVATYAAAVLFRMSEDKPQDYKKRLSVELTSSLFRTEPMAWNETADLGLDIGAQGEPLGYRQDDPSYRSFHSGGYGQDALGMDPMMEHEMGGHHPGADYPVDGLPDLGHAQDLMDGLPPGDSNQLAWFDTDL

Assay [1] concerns the target T1, full-length B-Catenin (Uniprot ID P35222) (Homo sapiens, UniProt P35222).
T1 construct: 10 nM full-length B-Catenin (Uniprot ID P35222)
The assay is classed as binding.

The target in assay [2] is beta-catenin/TCF4 interaction (Homo sapiens, UniProt P35222). The assay is classed as cell-based. Also noted: host or cells: HEK293. To be noted: read-out: NanoBRET Abs IC50. (In general: In BRET a luciferase serves as donor, and the signal depends on an acceptor being close.)
The target of assay [3] is TCF/LEF luciferase reporter in DLD1 cells (Homo sapiens, UniProt P35222). Nature of the assay: TCF reporter assay in DLD1 cells (4% or 20% FBS). In kind it is cell-based.
Setting [4] is: competition fluorescence polarization, read-out: beta-Catenin FP IC50.
The mark [5] stands for this setting: read-out: DLD1 4% Abs IC50, DLD1 reporter, 4% FBS.
The mark [6] stands for this setting: read-out: DLD1 4% Abs IC50, DLD1 TCF reporter, 4% FBS.
Setting [7] is: read-out: beta-catenin TCF4 competition FP assay IC50.
Where [8] appears, read: read-out: beta-catenin TCF4 DLD1 cell reporter assay IC50.

As usually defined, the IC50 is the concentration needed to halve the response being measured. As for “Ac-S5-Glu-Asp-Npg-B5-Asp-3COOHF-Aib-Ala-Phe-Lys*3-PyrS2-Phe-34ClF-GlnR*3-NH2 [I-1463]”, the IC50 in assay [1] (setting [4]) is < 50 nM; in assay [2], > 10000 nM; in assay [3] (setting [5]), 1 to 5 µM.

With “Ac-S6-Pro-Asp-Npg-B5-Asp-3COOHF-Aib-Ala-Phe-Lys*3-PyrS2-Phe-34ClF-GlnR*3-NH2 [I-1452]”, the results for the IC50 in assay [1] (setting [4]), in assay [2] and in assay [3] (setting [5]) were < 50 nM, 3000 to 10000 nM and 1 to 5 µM, respectively.

Take “Ac-PL3-Asp-Npg-B5-Asp-TfeGA-Val-Ala-Phe-Lys*3-PyrS2-2F3MeF-BztA-GlnR*3-Ala-NH2 [I-125]”: the IC50 in assay [1] (setting [4]) is < 50 nM; in assay [2] it was > 10000 nM; in assay [3] (setting [6]), 1 to 5 µM.

Consider “Ac-PL3-Asp-Npg-B5-Asp-3COOHF-Aib-Ala-Phe-Lys*3-PyrS2-3Thi-BztA-GlnR*3-dPro-NH2 [I-720]”, for which the IC50 in assay [1] (setting [4]) is < 50 nM; in assay [2] it was 3000 to 10000 nM; in assay [3] (setting [5]), 1 to 5 µM.

“Ac-PL3-Asp-Npg-B5-Asp-3COOHF-Aib-Ala-Phe-[Red]hCys-PyrS2-3Thi-BztA-Cys-Ala-NH2 [I-1280]”: the concentration for half-maximal inhibition (IC50) in assay [1] (setting [4]) is < 50 nM; in assay [3] (setting [5]) it was 1 to 5 µM.

With “Ac-PL3-Asp-Npg-B5-Asp-TfeGA-Aib-Ala-Phe-Lys*3-PyrS2-2F3MeF-BztA-GlnR*3-Ala-NH2 [I-121]”, the IC50 in assay [1] (setting [4]) was < 50 nM; in assay [2] it was 1500 to 3000 nM; in assay [3] (setting [6]), 1 to 5 µM.

Take “Ac-PL3-Asp-Npg-B5-Asp-3COOHF-Aib-Ala-Phe-Lys*3-PyrS2-3Thi-BztA-GlnR*3-OH [I-1709]”: the results for the IC50 in assay [1] (setting [4]) and in assay [3] (setting [5]) were < 50 nM and 1 to 5 µM, respectively.

As to “Ac-S6-Glu-Asp-Npg-B5-Asp-3COOHF-Aib-Ala-Phe-Lys*3-PyrS2-Phe-34ClF-GlnR*3-NH2 [I-1467]”, the half-inhibitory concentration (IC50) is < 50 nM in assay [1] (setting [4]) and 1 to 5 µM in assay [3] (setting [5]).

Turning to “Ac-PL3-Asp-Npg-B5-Asp-3COOHF-Aib-Ala-Phe-Lys*3-PyrS2-3Thi-BztA-GlnR*3-Phe-NH2 [I-722]”, the IC50 in assay [1] (setting [4]) was < 50 nM; in assay [2] it was 1500 to 3000 nM; in assay [3] (setting [5]), ≤ 1 µM.

Consider “Ac-PL3-Asp-Npg-B5-Asp-3COOHF-Aib-Ala-Phe-Lys*3-PyrS2-3Thi-BztA-GlnR*3-Val-Glu-[mPEG8]-Lys-NH2 [I-1817]”, for which the IC50 in assay [1] (setting [4]) is < 50 nM; in assay [2], 3000 to 10000 nM; in assay [3] (setting [5]), 1 to 5 µM.

For the substance “Ac-PL3-Asp-Npg-B5-Asp-3COOHF-Aib-Ala-Phe-[m5Meb]hCys-PyrS2-3Thi-BztA-Cys-Ala-NH2 [I-1366]”, the figures for the concentration for half-maximal inhibition (IC50) in assay [1] (setting [4]) and in assay [3] (setting [5]) were 200 to 750 nM and > 5 µM, respectively.

“Ac-PL3-Asp-Npg-B5-Asp-3COOHF-Aib-Ala-Phe-Lys*3-PyrS2-3Thi-BztA-GlnR*3-Pro-NH2 [I-719]”: the half-inhibitory concentration (IC50) in assay [1] (setting [4]) is < 50 nM; in assay [2], < 1500 nM; in assay [3] (setting [5]) it was 1 to 5 µM.

Take “Ac-PL3-Asp-Npg-B5-Asp-3COOHF-Aib-Ala-Phe-[IsoE]Cys-PyrS2-3Thi-BztA-Pen-Ala-NH2 [I-1458]”: the figures for the IC50 in assay [1] (setting [4]) and in assay [3] (setting [5]) were < 50 nM and 1 to 5 µM, respectively.

For “Ac-S5-Val-Asp-Npg-B5-Asp-3COOHF-Aib-Ala-Phe-Lys*3-PyrS2-Phe-34ClF-GlnR*3-NH2 [I-1466]”, the 50% inhibitory concentration (IC50) in assay [1] (setting [4]) is < 50 nM; in assay [2], > 10000 nM; in assay [3] (setting [5]), 1 to 5 µM.

Consider “Ac-PL3-Asp-Npg-B5-Asp-3COOHF-Aib-Ala-Phe-Leu-[SBut][CH2CH2NH]Dap-3thi-BztA-Ala-GlnR-NH2 [I-1364]”, for which the half-inhibitory concentration (IC50) was 50 to 200 nM in assay [1] (setting [4]) and > 5 µM in assay [3] (setting [5]).

Regarding “NPyroR3-Asp-Ala-B5-Asp-3COOHF-Aib-Ala-Phe-Lys*3-PyrS2-3Thi-BztA-GlnR*3-Ala-NH2 [I-1500]”, the IC50 is < 50 nM in assay [1] (setting [4]) and > 5 µM in assay [3] (setting [5]).

Turning to “Ac-PL3-Asp-Npg-B5-Asp-3COOHF-Aib-Ala-Phe-Lys*3-PyrS2-3Thi-BztA-GlnR*3-Ser-NH2 [I-721]”, the IC50 in assay [1] (setting [4]) is < 50 nM; in assay [2], 1500 to 3000 nM; in assay [3] (setting [5]), 1 to 5 µM.

As to “Ac-PL3-Asp-Npg-B5-Asp-3COOHF-Aib-Ala-Phe-[13Ac]Cys-PyrS2-3Thi-BztA-Cys-Ala-NH2 [I-1282]”, the concentration for half-maximal inhibition (IC50) in assay [1] (setting [4]) was < 50 nM; in assay [1] (setting [7]), 19 nM; in assay [3] (setting [8]) it was 11 µM.

Take “Ac-PL3-Asp-Npg-B5-Asp-3COOHF-Aib-Ala-Phe-[Red]Cys-PyrS2-3Thi-BztA-Cys-Ala-NH2 [I-1275]”: the half-maximal inhibitory concentration (IC50) was < 50 nM in assay [1] (setting [4]), 22 nM in assay [1] (setting [7]) and 5.2 µM in assay [3] (setting [8]).

Take “Ac-PL3-Asp-Npg-B5-Asp-3COOHF-Aib-Ala-Phe-[C3]hCys-PyrS2-3Thi-BztA-Cys-Ala-NH2 [I-1279]”: the values for the concentration for half-maximal inhibition (IC50) in assay [1] (setting [4]) and in assay [3] (setting [5]) were < 50 nM and > 5 µM, respectively.

“Ac-PL3-Asp-Npg-B5-Asp-3COOHF-Aib-Ala-Phe-Lys*3-PyrS2-3Thi-BztA-GlnR*3-Leu-Ser-[mPEG8]-Lys-NH2 [I-1820]”: the half-maximal inhibitory concentration (IC50) was < 50 nM in assay [1] (setting [4]), 1500 to 3000 nM in assay [2] and 1 to 5 µM in assay [3] (setting [5]).

Take “Ac-PL3-Asp-Npg-B5-Asp-3COOHF-Aib-Ala-Phe-[IsoE]hCys-PyrS2-3Thi-BztA-Cys-Ala-NH2 [I-1281]”: the results for the 50% inhibitory concentration (IC50) in assay [1] (setting [4]) and in assay [3] (setting [5]) were < 50 nM and 1 to 5 µM, respectively.

Take “Ac-PL3-Asp-DipA-B5-Asp-3COOHF-Ala-Ala-Phe-Lys*3-PyrS2-3Thi-34ClF-GlnR*3-Ala-Ala-[Ac-dPEG2]-Lys-NH2-NH2 [I-1787]”: the 50% inhibitory concentration (IC50) was < 50 nM in assay [1] (setting [4]) and 1 to 5 µM in assay [3] (setting [5]).

Take “Ac-PL3-Asp-Npg-B5-Asp-3COOHF-Aib-Ala-Phe-Lys*3-PyrS2-3Thi-BztA-GlnR*3-Aib-Ser-[mPEG8]-Lys-NH2 [I-1823]”: the 50% inhibitory concentration (IC50) is 50 to 200 nM in assay [1] (setting [4]) and 1 to 5 µM in assay [3] (setting [5]).

For the substance “Ac-Ala-Ala-S5-Ala-Asp-Npg-B5-Asp-3COOHF-Aib-Ala-Phe-Lys*3-PyrS2-3Thi-BztA-GlnR*3-Ala [I-1284]”, the figures for the concentration for half-maximal inhibition (IC50) in assay [1] (setting [4]) and in assay [3] (setting [5]) were < 50 nM and > 5 µM, respectively.

In the case of “Ac-PL3-Asp-DipA-B5-Asp-3COOHF-Ala-Ala-Phe-Lys*3-PyrS2-3Thi-34ClF-GlnR*3-Ala-Ala-[Ac-PEG8]-Lys-NH2-NH2 [I-1788]”, the half-maximal inhibitory concentration (IC50) is < 50 nM in assay [1] (setting [4]) and 1 to 5 µM in assay [3] (setting [5]).

For the substance “Ac-PL3-Asp-DipA-B5-Asp-3COOHF-Ala-Ala-Phe-Lys*3-PyrS2-3Thi-34ClF-GlnR*3-Ala-Ala-[Oct-PEG8]-Lys-NH2-NH2 [I-1790]”, the figures for the half-maximal inhibitory concentration (IC50) in assay [1] (setting [4]) and in assay [3] (setting [5]) were < 50 nM and 1 to 5 µM, respectively.

In the case of “Ac-PL3-Asp-Npg-B5-Asp-3COOHF-Aib-Ala-Phe-Lys*3-PyrS2-3Thi-BztA-GlnR*3-Thr-Ala-[mPEG8]-Lys-NH2 [I-1815]”, the IC50 in assay [1] (setting [4]) is < 50 nM; in assay [3] (setting [5]), 1 to 5 µM.

As to “Ac-PL3-Asp-Npg-B5-Asp-3COOHF-Aib-Ala-Phe-[33Oxe]Cys-PyrS2-3Thi-BztA-Cys-Ala-NH2 [I-1277]”, the IC50 is < 50 nM in assay [1] (setting [4]), 31 nM in assay [1] (setting [7]) and 18 µM in assay [3] (setting [8]).

For the substance “Ac-PL3-Asp-Npg-B5-Asp-3COOHF-Aib-Ala-Phe-Leu-[4Abu]DapAc7-3thi-BztA-Ala-GlnR-NH2 [I-1363]”, the values for the IC50 in assay [1] (setting [4]) and in assay [3] (setting [5]) were 50 to 200 nM and > 5 µM, respectively.

“Ac-PL3-Asp-Npg-B5-Asp-3COOHF-Aib-Ala-Phe-[m50Meb]Cys-PyrS2-3Thi-BztA-Pen-Ala-NH2 [I-1456]”: the IC50 in assay [1] (setting [4]) is 50 to 200 nM; in assay [3] (setting [5]), > 5 µM.

As to “Ac-S5-Ala-Asp-Npg-B5-Asp-3COOHF-Aib-Ala-Phe-Leu-[4Abu]DapAc7-3thi-BztA-Ala-GlnR*3-NH2 [I-1299]”, the IC50 in assay [1] (setting [4]) was 50 to 200 nM; in assay [3] (setting [5]), > 5 µM.

“Ac-PL3-Asp-Npg-B5-Asp-3COOHF-Aib-Ala-Phe-[Red]Cys-PyrS2-3Thi-BztA-Pen-Ala-NH2 [I-1457]”: the concentration for half-maximal inhibition (IC50) in assay [1] (setting [4]) was 50 to 200 nM; in assay [3] (setting [5]), 1 to 5 µM.

For the substance “NPyroR3-Asp-Ala-B4-Asp-3COOHF-Aib-Ala-Phe-Lys*3-PyrS3-3Thi-BztA-GlnR*3-Ala-NH2 [I-1499]”, the results for the IC50 in assay [1] (setting [4]) and in assay [3] (setting [5]) were < 50 nM and > 5 µM, respectively.
